Data from PubChem BioAssay (NCI).
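Exposure lasted 48 hours, with cells grown in 96-well plates and compounds tested at five concentrations. GI50 marks 50% less growth. TGI is the concentration that stops growth completely.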

Key:
Experiment in all cases: inhibition of tumour cell growth, NCI panel, 48 h
MCF7 breast = tested on: MCF7 breast
SK-OV-3 ovarian = tested on: SK-OV-3 ovarian
NCI-H23 lung = tested on: NCI-H23 lung
OVCAR-5 ovarian = tested on: OVCAR-5 ovarian
PC-3 prostate = tested on: PC-3 prostate
TK-10 renal = tested on: TK-10 renal
MDA-N = tested on: MDA-N
SF-539 CNS = tested on: SF-539 CNS
SR leukemia = tested on: SR leukemia
IGROV1 ovarian = tested on: IGROV1 ovarian
OVCAR-4 ovarian = tested on: OVCAR-4 ovarian
LOX IMVI melanoma = tested on: LOX IMVI melanoma
KM12 colon = tested on: KM12 colon
DU-145 prostate = tested on: DU-145 prostate
HOP-62 NSCLC = tested on: HOP-62 NSCLC
NCI/ADR-RES ovarian = tested on: NCI/ADR-RES ovarian
HCT-15 colon = tested on: HCT-15 colon
MOLT-4 leukemia = tested on: MOLT-4 leukemia
786-0 renal = tested on: 786-0 renal
SNB-19 CNS = tested on: SNB-19 CNS
ACHN renal = tested on: ACHN renal
SK-MEL-5 melanoma = tested on: SK-MEL-5 melanoma
HOP-92 NSCLC = tested on: HOP-92 NSCLC
SK-MEL-2 melanoma = tested on: SK-MEL-2 melanoma
MDA-MB-435 = tested on: MDA-MB-435
OVCAR-3 ovarian = tested on: OVCAR-3 ovarian
SF-268 CNS = tested on: SF-268 CNS
U251 CNS = tested on: U251 CNS
CAKI-1 renal = tested on: CAKI-1 renal
UACC-257 melanoma = tested on: UACC-257 melanoma
HCC-2998 colon = tested on: HCC-2998 colon
NCI-H226 lung = tested on: NCI-H226 lung
SF-295 CNS = tested on: SF-295 CNS
UO-31 renal = tested on: UO-31 renal
RPMI-8226 leukemia = tested on: RPMI-8226 leukemia
RXF 393 renal = tested on: RXF 393 renal
SW-620 colon = tested on: SW-620 colon
OVCAR-8 ovarian = tested on: OVCAR-8 ovarian
COLO 205 colon = tested on: COLO 205 colon
SN12C renal = tested on: SN12C renal
CCRF-CEM leukemia = tested on: CCRF-CEM leukemia
SK-MEL-28 melanoma = tested on: SK-MEL-28 melanoma
M14 melanoma = tested on: M14 melanoma
MDA-MB-231 breast = tested on: MDA-MB-231 breast
HL-60(TB) leukemia = tested on: HL-60(TB) leukemia
MALME-3M melanoma = tested on: MALME-3M melanoma
NCI-H322M lung = tested on: NCI-H322M lung
K-562 leukemia = tested on: K-562 leukemia
NCI-H460 lung = tested on: NCI-H460 lung
UACC-62 melanoma = tested on: UACC-62 melanoma
HT29 colon = tested on: HT29 colon
SNB-75 CNS = tested on: SNB-75 CNS
T-47D breast = tested on: T-47D breast
A549 NSCLC = tested on: A549 NSCLC
HS 578T breast = tested on: HS 578T breast
EKVX NSCLC = tested on: EKVX NSCLC
HCT-116 colon = tested on: HCT-116 colon

**Q.** O=[N+]([O-])C1([N+](=O)[O-])CCC([N+](=O)[O-])([N+](=O)[O-])c2nn(-c3ccccc3)nc21 was tested. Which GI50 (MCF7 breast) did it give?
**A.** 17.1 µM

**Q.** And the TGI (MCF7 breast)?
**A.** 34.7 µM

**Q.** And the GI50 (SK-OV-3 ovarian)?
**A.** 28.6 µM

**Q.** What about the TGI (SK-OV-3 ovarian) of the same compound?
**A.** 88.1 µM

**Q.** What about the GI50 (NCI-H23 lung) of the same compound?
**A.** 13.2 µM

**Q.** What about the TGI (NCI-H23 lung) of the same compound?
**A.** 29.3 µM

**Q.** What about the GI50 (OVCAR-5 ovarian) of the same compound?
**A.** 22.2 µM

**Q.** And the TGI (OVCAR-5 ovarian)?
**A.** 37 µM

**Q.** And the GI50 (PC-3 prostate)?
**A.** 16.3 µM

**Q.** And the TGI (PC-3 prostate)?
**A.** 31 µM

**Q.** What about the GI50 (TK-10 renal) of the same compound?
**A.** 20.5 µM

**Q.** And the TGI (TK-10 renal)?
**A.** 37.1 µM

**Q.** What about the GI50 (MDA-N) of the same compound?
**A.** 6.17 µM

**Q.** And the TGI (MDA-N)?
**A.** 19.3 µM

**Q.** What about the GI50 (SF-539 CNS) of the same compound?
**A.** 18.9 µM

**Q.** What about the TGI (SF-539 CNS) of the same compound?
**A.** 36.9 µM

**Q.** What about the GI50 (SR leukemia) of the same compound?
**A.** 3.67 µM

**Q.** What about the TGI (SR leukemia) of the same compound?
**A.** > 100 µM

**Q.** And the GI50 (IGROV1 ovarian)?
**A.** 18.8 µM

**Q.** And the TGI (IGROV1 ovarian)?
**A.** 41.3 µM

**Q.** What about the GI50 (OVCAR-4 ovarian) of the same compound?
**A.** 15.5 µM

**Q.** What about the TGI (OVCAR-4 ovarian) of the same compound?
**A.** 39.7 µM

**Q.** And the GI50 (LOX IMVI melanoma)?
**A.** 7.25 µM

**Q.** And the TGI (LOX IMVI melanoma)?
**A.** 21.3 µM

**Q.** What about the GI50 (KM12 colon) of the same compound?
**A.** 14.2 µM

**Q.** And the TGI (KM12 colon)?
**A.** 28.7 µM

**Q.** What about the GI50 (DU-145 prostate) of the same compound?
**A.** 21 µM

**Q.** What about the TGI (DU-145 prostate) of the same compound?
**A.** 44.2 µM

**Q.** And the GI50 (HOP-62 NSCLC)?
**A.** 17.6 µM

**Q.** And the TGI (HOP-62 NSCLC)?
**A.** 38 µM

**Q.** And the GI50 (NCI/ADR-RES ovarian)?
**A.** 21.6 µM

**Q.** And the TGI (NCI/ADR-RES ovarian)?
**A.** 53.4 µM

**Q.** What about the GI50 (HCT-15 colon) of the same compound?
**A.** 12.7 µM

**Q.** What about the TGI (HCT-15 colon) of the same compound?
**A.** 26.2 µM

**Q.** What about the GI50 (MOLT-4 leukemia) of the same compound?
**A.** 3.41 µM

**Q.** And the TGI (MOLT-4 leukemia)?
**A.** 25.9 µM

**Q.** And the GI50 (786-0 renal)?
**A.** 14.4 µM

**Q.** And the TGI (786-0 renal)?
**A.** 28.1 µM

**Q.** And the GI50 (SNB-19 CNS)?
**A.** 30 µM

**Q.** And the TGI (SNB-19 CNS)?
**A.** 77.9 µM

**Q.** And the GI50 (ACHN renal)?
**A.** 24.7 µM

**Q.** And the TGI (ACHN renal)?
**A.** 60.7 µM

**Q.** And the GI50 (SK-MEL-5 melanoma)?
**A.** 15 µM

**Q.** And the TGI (SK-MEL-5 melanoma)?
**A.** 28.7 µM

**Q.** What about the GI50 (HOP-92 NSCLC) of the same compound?
**A.** 13.3 µM

**Q.** What about the TGI (HOP-92 NSCLC) of the same compound?
**A.** 27.4 µM

**Q.** What about the GI50 (SK-MEL-2 melanoma) of the same compound?
**A.** 21 µM

**Q.** What about the TGI (SK-MEL-2 melanoma) of the same compound?
**A.** 50.3 µM

**Q.** What about the GI50 (MDA-MB-435) of the same compound?
**A.** 6.8 µM

**Q.** And the TGI (MDA-MB-435)?
**A.** 20.5 µM

**Q.** And the GI50 (OVCAR-3 ovarian)?
**A.** 14.8 µM

**Q.** What about the TGI (OVCAR-3 ovarian) of the same compound?
**A.** 28.1 µM

**Q.** What about the GI50 (SF-268 CNS) of the same compound?
**A.** 16.2 µM

**Q.** And the TGI (SF-268 CNS)?
**A.** 35.4 µM

**Q.** What about the GI50 (U251 CNS) of the same compound?
**A.** 17.3 µM

**Q.** And the TGI (U251 CNS)?
**A.** 35.1 µM

**Q.** And the GI50 (CAKI-1 renal)?
**A.** 40.4 µM

**Q.** And the TGI (CAKI-1 renal)?
**A.** 66 µM

**Q.** What about the GI50 (UACC-257 melanoma) of the same compound?
**A.** 15 µM

**Q.** What about the TGI (UACC-257 melanoma) of the same compound?
**A.** 30.2 µM

**Q.** And the GI50 (HCC-2998 colon)?
**A.** 19 µM

**Q.** What about the TGI (HCC-2998 colon) of the same compound?
**A.** 35.7 µM

**Q.** What about the GI50 (NCI-H226 lung) of the same compound?
**A.** 14.1 µM

**Q.** What about the TGI (NCI-H226 lung) of the same compound?
**A.** 29.1 µM

**Q.** And the GI50 (SF-295 CNS)?
**A.** 20.9 µM

**Q.** What about the TGI (SF-295 CNS) of the same compound?
**A.** 46.5 µM

**Q.** And the GI50 (UO-31 renal)?
**A.** 20.5 µM

**Q.** What about the TGI (UO-31 renal) of the same compound?
**A.** 34.8 µM

**Q.** What about the GI50 (RPMI-8226 leukemia) of the same compound?
**A.** 5.26 µM

**Q.** And the TGI (RPMI-8226 leukemia)?
**A.** 37.8 µM

**Q.** And the GI50 (RXF 393 renal)?
**A.** 13.8 µM

**Q.** And the TGI (RXF 393 renal)?
**A.** 27.7 µM

**Q.** What about the GI50 (SW-620 colon) of the same compound?
**A.** 14 µM

**Q.** And the TGI (SW-620 colon)?
**A.** 34.4 µM

**Q.** What about the GI50 (OVCAR-8 ovarian) of the same compound?
**A.** 25.1 µM

**Q.** What about the TGI (OVCAR-8 ovarian) of the same compound?
**A.** 89.9 µM

**Q.** What about the GI50 (COLO 205 colon) of the same compound?
**A.** 16.5 µM

**Q.** What about the TGI (COLO 205 colon) of the same compound?
**A.** 33 µM

**Q.** What about the GI50 (SN12C renal) of the same compound?
**A.** 12.4 µM

**Q.** And the TGI (SN12C renal)?
**A.** 25 µM

**Q.** And the GI50 (CCRF-CEM leukemia)?
**A.** 7 µM

**Q.** What about the TGI (CCRF-CEM leukemia) of the same compound?
**A.** 93 µM

**Q.** What about the GI50 (SK-MEL-28 melanoma) of the same compound?
**A.** 17.6 µM

**Q.** And the TGI (SK-MEL-28 melanoma)?
**A.** 38.1 µM

**Q.** What about the GI50 (M14 melanoma) of the same compound?
**A.** 12.1 µM

**Q.** And the TGI (M14 melanoma)?
**A.** 27.8 µM

**Q.** What about the GI50 (MDA-MB-231 breast) of the same compound?
**A.** 14.5 µM

**Q.** What about the TGI (MDA-MB-231 breast) of the same compound?
**A.** 28.5 µM

**Q.** And the GI50 (HL-60(TB) leukemia)?
**A.** 4.01 µM

**Q.** And the TGI (HL-60(TB) leukemia)?
**A.** 24.6 µM

**Q.** And the GI50 (MALME-3M melanoma)?
**A.** 18.1 µM

**Q.** And the TGI (MALME-3M melanoma)?
**A.** 37.4 µM

**Q.** What about the GI50 (NCI-H322M lung) of the same compound?
**A.** 19.8 µM

**Q.** And the TGI (NCI-H322M lung)?
**A.** 41.5 µM

**Q.** And the GI50 (K-562 leukemia)?
**A.** 4.28 µM

**Q.** What about the TGI (K-562 leukemia) of the same compound?
**A.** > 100 µM

**Q.** And the GI50 (NCI-H460 lung)?
**A.** 16.8 µM

**Q.** And the TGI (NCI-H460 lung)?
**A.** 39.8 µM

**Q.** What about the GI50 (UACC-62 melanoma) of the same compound?
**A.** 18 µM

**Q.** What about the TGI (UACC-62 melanoma) of the same compound?
**A.** 40.6 µM

**Q.** And the GI50 (HT29 colon)?
**A.** 4.77 µM

**Q.** What about the TGI (HT29 colon) of the same compound?
**A.** 21.3 µM

**Q.** And the GI50 (SNB-75 CNS)?
**A.** 17.4 µM

**Q.** What about the TGI (SNB-75 CNS) of the same compound?
**A.** 38.4 µM

**Q.** And the GI50 (T-47D breast)?
**A.** 18.7 µM

**Q.** What about the TGI (T-47D breast) of the same compound?
**A.** 52.8 µM

**Q.** What about the GI50 (A549 NSCLC) of the same compound?
**A.** 19.6 µM

**Q.** And the TGI (A549 NSCLC)?
**A.** 59.5 µM

**Q.** What about the GI50 (HS 578T breast) of the same compound?
**A.** 25.9 µM

**Q.** And the TGI (HS 578T breast)?
**A.** 60.1 µM

**Q.** And the GI50 (EKVX NSCLC)?
**A.** 32.2 µM

**Q.** And the TGI (EKVX NSCLC)?
**A.** 92 µM

**Q.** And the GI50 (HCT-116 colon)?
**A.** 13.7 µM

**Q.** What about the TGI (HCT-116 colon) of the same compound?
**A.** 30 µM
